Rows were chosen to be rich in hits. Some 1.7% of all compounds tested hit in one or more screens of this group.
CDK5 inh – CDK5/p35 (human) kinase inhibition; inhibition, % at 10 µM; Recombinant CDK5/p35, ADP-Glo luminescence, 60 min; actives 0.01% (n = 330,000); Q00535+Q15078; AID 488839;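 active means highest replicate inhibition of at least 50% and at least 75% of replicates reaching 50%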
DYRK1A inh – blocks rat Dyrk1A kinase activity; Q63470; ADP-Glo luminescence, NFATc1 peptide; inhibition, % at 12.5 µM; actives 0.43% (n = 310,000); AID 504441; in the data active means inhibition above about 50%
dFosB act-1 – mouse delta FosB homodimer activation. actives 0.99% (n = 340,000). activation, % at 25 µM. purified delta FosB, TAMRA-CDK5 oligo fluorescence polarization; percent of positive-control signal above neutral wells. P13346;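 active means mean activation above about 17%, with every replicate also reaching it, limit read from the data, passing the limit was not always enough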
Yeast UUG start – modulators of yeast start codon fidelity, primary screen, whole organism, S. cerevisiae, single point, plate reader | AID 602363, 2012 | actives 0.13% (n = 350,000) | activity score, % at 18.7 µM | S. cerevisiae UUG-firefly luciferase reporter, luminescence/redox ratio;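 active means replicate mean at a twofold rise or more, about +100% in these data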;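 further: firefly luciferase made from a UUG start codon reports start codon fidelity; reporter light over untreated wells divided by growth signal over untreated wells; some hits fall short of that in this replicate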
CAL PDZ FP-1 – blocks peptide binding to human CAL PDZ domain | Q9HD26 | actives 0.02% (n = 330,000) | purified CAL PDZ, TMR-peptide fluorescence polarization, 1 h | inhibition, % at 20 µM;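 active means highest replicate inhibition of at least 40%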
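Material – purified CerCALP PDZ construct · Detection – FP readout, S and P plane fluorescence · Measure – percent inhibition from loss of millipolarization · Controls – unlabelled peptide for full inhibition, DMSO wells as neutral · Probe or stimulus – TMR-labelled reporter peptide T*-PRC34 bound in PDZ groove · Times – 1 h at RT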
CAL PDZ FP-2 – CAL PDZ (human) peptide binding inhibition; inhibition, % at 24.9 µM; purified CAL PDZ, TMR-peptide fluorescence polarization, 1 h; actives 0.92% (n = 300,000); Q9HD26;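 active means mean inhibition of at least 30% with at least half of replicates also reaching 30%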
dFosB act-2 – activators of mouse delta FosB homodimer DNA binding; shares compounds with dFosB act-1; activation, % at 24.9 µM; 2,400 tested, under 10 active; purified delta FosB, TAMRA-CDK5 oligo fluorescence polarization; normalised: neutral wells 0, positive control 100;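 active means highest replicate activation at or above 34% and every replicate reaching that threshold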;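 further: higher polarization means more probe DNA bound by delta FosB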
Each line names hits and unclear results; the compound was inactive in the other large screens (follow-up assays come after a bar, where they were run).

COc1ccc(CCn2c(=N)c(C(=O)NCCN3CCOCC3)cc3c(=O)n4ccccc4nc32)cc1OC	none
O=C(c1cnccn1)N1CC[C@@H]2[C@H]1c1cc(-c3ccccc3)ccc1N[C@@H]2CO	none (no result: CDK5 inh, DYRK1A inh, dFosB act-1, CAL PDZ FP-1, CAL PDZ FP-2)
Cc1nc(SCC(=O)NC(C)c2ccccc2)c2oc3ccccc3c2n1 (configuration not stated)	dFosB act-1 35 | dFosB act-2 inactive
CCc1nnc(NC(=O)CSc2ncnc3c2oc2ccccc23)s1	none
O=C(CSc1ncnc2c1oc1ccccc12)Nc1nc2ccccc2s1	dFosB act-1 33 | dFosB act-2 inactive
CNC[C@@H]1OCCCC[C@@H](C)Oc2ccc(NC(=O)Nc3c(C)noc3C)cc2C(=O)N([C@H](C)CO)C[C@H]1C	none (no result: CDK5 inh, DYRK1A inh, dFosB act-1, CAL PDZ FP-1, CAL PDZ FP-2)
Cn1nc(-c2ccc(C(=O)Nc3cccnc3)cc2)c2ccccc2c1=O	none (no result: Yeast UUG start)
Cn1nc(-c2ccc(C(=O)Nc3ccc(F)cc3)cc2)c2ccccc2c1=O	dFosB act-1 51 (no result: Yeast UUG start) | dFosB act-2 inactive
Cn1nc(-c2ccc(C(=O)Nc3cccc(Cl)c3)cc2)c2ccccc2c1=O	dFosB act-1 40 | dFosB act-2 inactive
Cc1ccc(NC(=O)c2ccc(-c3nn(C)c(=O)c4ccccc34)cc2)cc1	none
CCOc1ccc(NC(=O)C2CCCN(S(=O)(=O)c3ccc4[nH]c(=O)ccc4c3)C2)cc1 (configuration not stated)	none
COc1cc(NC(=O)C2CCCN(S(=O)(=O)c3ccc4[nH]c(=O)ccc4c3)C2)cc(OC)c1 (configuration not stated)	dFosB act-1 52 | dFosB act-2 inactive
COc1ccc(NC(=O)C2CCCN(S(=O)(=O)c3ccc4[nH]c(=O)ccc4c3)C2)cc1 (configuration not stated)	dFosB act-1 17 (no result: CAL PDZ FP-2) | dFosB act-2 inactive
CNC[C@@H]1Oc2ccc(NS(=O)(=O)c3cccs3)cc2C(=O)N([C@H](C)CO)C[C@@H]1C	none (no result: CDK5 inh, DYRK1A inh, dFosB act-1, CAL PDZ FP-1, CAL PDZ FP-2)
COc1cccc(NC(=O)N(C)C[C@@H]2Oc3ncc(C#Cc4ccc(F)cc4)cc3C(=O)N([C@@H](C)CO)C[C@H]2C)c1	none (no result: CDK5 inh, DYRK1A inh, dFosB act-1, CAL PDZ FP-1, CAL PDZ FP-2)
COc1ccc(CCNCC(O)Cn2c3ccccc3c3ccccc32)cc1OC (configuration not stated)	dFosB act-1 21 (no result: Yeast UUG start) | dFosB act-2 inactive
OCCN1CCN(c2nc(-c3ccccc3O)nc3ccccc23)CC1	dFosB act-1 24 (no result: CAL PDZ FP-1) | dFosB act-2 inactive
CC(C)NC(=O)Nc1ccc2c(c1)C(=O)N([C@@H](C)CO)C[C@H](C)[C@@H](CN(C)Cc1ccc3c(c1)OCO3)OCCCC[C@H](C)O2	none (no result: CDK5 inh, DYRK1A inh, dFosB act-1, CAL PDZ FP-1, CAL PDZ FP-2)
Cc1ccccc1NC(=O)CSc1nc(-c2ccccc2)cc(=O)[nH]1	none (no result: CAL PDZ FP-2)
Cc1ccccc1C(=O)NNC(=O)CSc1nc(-c2ccccc2)cc(=O)[nH]1	dFosB act-1 40 (no result: Yeast UUG start) | dFosB act-2 inactive
O=C(CSc1nc(-c2ccccc2)cc(=O)[nH]1)NCc1ccc2c(c1)OCO2	dFosB act-1 49 | dFosB act-2 inactive
CC(C)CC#Cc1ccc2c(c1)O[C@@H](CN(C)C(=O)c1ccncc1)[C@@H](C)CN([C@@H](C)CO)S2(=O)=O	none (no result: CDK5 inh, DYRK1A inh, dFosB act-1, CAL PDZ FP-1, CAL PDZ FP-2)
COCC(=O)Nc1ccc2c(c1)C(=O)N(C)C[C@@H](OC)[C@@H](C)CN(C(=O)c1cnccn1)[C@@H](C)CO2	none (no result: CDK5 inh, DYRK1A inh, dFosB act-1, CAL PDZ FP-1, CAL PDZ FP-2)
COc1ccc(N(C(=O)c2snc(C(N)=O)c2N)C(C(=O)NC2CCCCC2)c2ccc(F)cc2)c(OC)c1 (configuration not stated)	dFosB act-1 40 | dFosB act-2 inactive
CCCC(C(=O)NC1CCCC1)N(C(=O)c1snc(C(N)=O)c1N)c1ccc(F)cc1 (configuration not stated)	dFosB act-1 24 | dFosB act-2 inactive
NC(=O)c1nsc(C(=O)N(c2ccccc2F)C(C(=O)NCc2ccc(F)cc2)c2ccc(O)cc2)c1N (configuration not stated)	dFosB act-1 44 | dFosB act-2 inactive
CCCCC(C(=O)NC1CCCC1)N(C(=O)c1snc(C(N)=O)c1N)c1ccc(OCC)cc1 (configuration not stated)	none
CCC(C(=O)NC1CCCC1)N(C(=O)c1snc(C(N)=O)c1N)c1ccc(OC)c(OC)c1 (configuration not stated)	none
COc1ccc(N(C(=O)c2snc(C(N)=O)c2N)C(C(=O)NC2CCCC2)c2cccs2)cc1OC (configuration not stated)	dFosB act-1 37 (no result: Yeast UUG start, CAL PDZ FP-2) | dFosB act-2 inactive
O=[N+]([O-])c1ccccc1OCCOc1ccccc1[N+](=O)[O-]	dFosB act-1 23 (no result: Yeast UUG start) | dFosB act-2 inactive
COc1ccc(OCCOc2ccccc2[N+](=O)[O-])cc1	none (no result: Yeast UUG start)
CCC(=O)Nc1ccc2c(c1)OC[C@@H](C)N(C(=O)c1cccnc1)C[C@H](C)[C@@H](OC)CN(C)C2=O	none (no result: CDK5 inh, DYRK1A inh, dFosB act-1, CAL PDZ FP-1, CAL PDZ FP-2)
Cc1csc(NC(=O)CSc2nsc(SCC(=O)Nc3nc(C)cs3)c2C#N)n1	dFosB act-1 25 (no result: CAL PDZ FP-2) | dFosB act-2 inactive
Cc1cc(C)c(C#N)c(SCC(=O)Nc2nnc(-c3ccccc3)s2)n1	dFosB act-1 39 (no result: CAL PDZ FP-1) | dFosB act-2 inactive
COc1ccc(S(=O)(=O)Nc2cccc(-c3ccc4nncn4n3)c2)cc1	dFosB act-1 21 | dFosB act-2 inactive
CCCNC(=O)C[C@H]1CC[C@@H]2[C@H](COc3ccc(NC(=O)C4CCCC4)cc3C(=O)N2C)O1	none (no result: CDK5 inh, DYRK1A inh, dFosB act-1, CAL PDZ FP-1, CAL PDZ FP-2)
Cn1ncc2c(Nc3cccc(Cl)c3)nc(Nc3cccc(Cl)c3)nc21	dFosB act-1 31 | dFosB act-2 inactive
Cn1ncc2c(Nc3ccc(O)cc3)nc(Cl)nc21	none
Cn1ncc2c(Nc3ccc(Br)cc3)nc(Nc3ccc(Br)cc3)nc21	dFosB act-1 53 | dFosB act-2 inactive
O=C(C[C@@H]1C=C[C@H](NC(=O)CN2CCOCC2)[C@@H](CO)O1)NC1CCCCC1	none (no result: CDK5 inh, DYRK1A inh, dFosB act-1, CAL PDZ FP-1, CAL PDZ FP-2)
COCC(=O)Nc1ccc2c(c1)C(=O)N(C)C[C@@H](OC)[C@H](C)CN(C(=O)NC(C)C)[C@@H](C)CO2	none (no result: CDK5 inh, DYRK1A inh, dFosB act-1, CAL PDZ FP-1, CAL PDZ FP-2)
COC(=O)c1ccc(NC(=O)c2snnc2-c2ccccc2)cc1	none (no result: Yeast UUG start)
COC(=O)c1ccc(NC(=O)c2c(C(=O)Nc3ccccc3)sc3nc(C)cc(=O)n23)cc1	dFosB act-1 92, CAL PDZ FP-2 99 (no result: Yeast UUG start) | dFosB act-2 inactive
COC(=O)c1ccc(NC(=O)c2sc3nc(-c4ccccc4)cn3c2C)cc1	dFosB act-1 26 (no result: CAL PDZ FP-2) | dFosB act-2 inactive
COc1ccc(-c2cn3c(C)c(C(=O)Nc4ccncc4)sc3n2)cc1	none
CO[C@@H]1CN(C)C(=O)c2cc(NC(=O)C3CCC3)ccc2OC[C@H](C)N(C(=O)CN(C)C)C[C@H]1C	none (no result: CDK5 inh, DYRK1A inh, dFosB act-1, CAL PDZ FP-1, CAL PDZ FP-2)
